Patent US20250361281A1, “AMYLIN RECEPTOR (hAMY3R) AGONISTS WITH IMPROVED CHEMICAL STABILITY” (GUBRA A/S, priority 2022, published 2025)

Chains of the proteins cited; added tags and fusions are not shown. Residues count along the entry.
UniProt O60895, 43-175 partner: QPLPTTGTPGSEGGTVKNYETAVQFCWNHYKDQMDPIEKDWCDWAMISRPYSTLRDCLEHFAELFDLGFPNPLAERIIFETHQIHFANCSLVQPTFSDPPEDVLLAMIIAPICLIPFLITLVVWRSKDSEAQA
UniProt Q16602, 23-461: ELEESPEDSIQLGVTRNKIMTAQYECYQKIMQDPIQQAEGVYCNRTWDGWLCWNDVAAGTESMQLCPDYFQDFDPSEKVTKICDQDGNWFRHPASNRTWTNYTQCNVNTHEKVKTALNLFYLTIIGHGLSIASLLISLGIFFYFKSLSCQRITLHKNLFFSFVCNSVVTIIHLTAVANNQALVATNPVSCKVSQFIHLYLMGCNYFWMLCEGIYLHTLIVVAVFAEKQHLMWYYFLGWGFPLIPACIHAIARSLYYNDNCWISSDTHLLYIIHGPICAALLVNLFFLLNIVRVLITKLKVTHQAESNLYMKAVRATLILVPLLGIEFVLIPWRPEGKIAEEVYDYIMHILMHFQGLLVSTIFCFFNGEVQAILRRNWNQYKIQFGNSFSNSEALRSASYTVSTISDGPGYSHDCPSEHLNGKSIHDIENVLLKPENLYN

Molecular target: T1, hAM1 receptor (Homo sapiens, UniProt O60895+Q16602)
T1 construct: monoclonal sub-clone
Experiment: cAMP assay for in vitro receptor activation, hAM1-R
Assay type: cell-based
Method: General Protocols for cAMP Assays for Measuring In Vitro Receptor Activation hAMY3-R:
Cells stably overexpressing the hAM1 receptor were obtained from Ogeda (now Astellas Pharma), sub-cloned and a monoclonal cell-line with an appropriate assay-window was expanded, aliquoted and frozen. An aliquot was thawed and plated in DPBS with 0.05% casein and 0.5 mM IBMX as 8000 cells/well in a 384-well format.

Q: For `CC[C@H](C)[C@H](NC(=O)[C@H](C)NC(=O)CNC(=O)[C@H](Cc1ccccc1)NC(=O)[C@H](CC(N)=O)NC(=O)[C@H](CC(N)=O)NC(=O)[C@H](CO)NC(=O)[C@H](CO)NC(=O)[C@H](Cc1c[nH]cn1)NC(=O)[C@@H](NC(=O)[C@H](CC(C)C)NC(=O)[C@H](Cc1ccccc1)NC(=O)[C@H](CC(N)=O)NC(=O)[C@H](C)NC(=O)[C@H](CC(C)C)NC(=O)[C@H](CCCNC(=N)N)NC(=O)[C@H](CCC(N)=O)NC(=O)[C@@H](NC(=O)[C@H](C)NC(=O)[C@@H]1CSSC[C@H](NC(=O)[C@@H](N)CCCCN)C(=O)N[C@@H](CC(N)=O)C(=O)N[C@@H]([C@@H](C)O)C(=O)N[C@@H](C)C(=O)N[C@@H]([C@@H](C)O)C(=O)N1)[C@@H](C)O)C(C)C)C(=O)N[C@@H](CC(C)C)C(=O)N[C@@H](CO)C(=O)N[C@@H](CO)C(=O)N[C@H](C(=O)N[C@@H](CC(N)=O)C(=O)N[C@H](C(=O)NCC(=O)N[C@@H](CO)C(=O)N[C@@H](CC(N)=O)C(=O)N[C@H](C(=O)N[C@@H](Cc1ccc(O)cc1)C(N)=O)[C@@H](C)O)C(C)C)[C@@H](C)O` [SEQ ID NO: 2], which “activity on AM1R” value is on record?
A: Its value is “inactive”.
